From patent US12157772B2, “Prophylactic agent, onset-suppressing agent or therapeutic agent for progressive immune demyelinating diseases” (NATIONAL CENTER OF NEUROLOGY AND PSYCHIATRY, priority 2016, dated 2024)

System: Spleen-derived CD19+ B cells
Assay: Zbtb20 expression in spleen-derived CD19+ B cells cultured with LPS and various cytokines
Format: cell-based, mouse
Details: cultured for 24 h in the presence of LPS and cytokine; FIG. 33
Protocol: Spleen-derived CD19^+ B cells were isolated and purified by sorting by FACS using a FACS ARIA II (manufactured by BD Cytometry Systems, Inc.). The purified B cells were cultured for 24 h in the presence of LPS and in the co-presence or absence of each cytokine designated in FIG. 33(a). After the culturing, the expression levels of Zbtb20 gene in the respective cells were measured. As antibodies used at the detection were an anti-CD19 antibody (manufactured by Biolegend, Inc.) and an anti-Zbtb20 antibody (manufactured by Becton Dickinson, Inc.).

B1: IFNβ1: cytokine (type 1 interferon) added to B cell culture (protein, UniProt P01574 22-187, looked up)
Interferon beta: MSYNLLGFLQRSSNFQCQKLLWQLNGRLEYCLKDRMNFDIPEEIKQLQQFQKEDAALTIYEMLQNIFAIFRQDSSSTGWNETIVENLLANVYHQINHLKTVLEEKLEKEDFTRGKLMSSLHLKRYYGRILHYLKAKEYSHCAWTIVRVEILRNFYFINRLTGYLRN
increase in the expression of Zbtb20 gene: the most remarkable
